Results as given in publication PMC3415323 (International Journal of Nanomedicine, 2012).

What was measured:
[1] = rat, in vivo, 5 mg/kg

Frel (relative bioavailability) [1]: 100%
AUC0–12 ([1]; po): 156.81 ± 9.53 µg·min/mL
Cmax ([1]; po): 640 ± 140 ng/mL
MRT ([1]; po): 6.0562 ± 0.3438 h
Tmax ([1]; po): 2.17 ± 0.6237 h
Papp (Caco-2 cell monolayers; 0.4 mg/mL HSYA, apical to basolateral): 3.52 ± 1.41 × 10^−6 cm/s
membrane permeability of HSYA (Caco-2 cell monolayers; HSYA uptake and transport experiments): very low
Substance: Hydroxysafflor yellow A [HSYA]
